Tested on: Mus musculus
Test: Oral bioavailability in NMRI mouse at 10 mg/kg
Type: ADME, organism-based
Settings: in vivo

Cc1nn(C)c(C)c1NS(=O)(=O)c1c(Cl)cc(-c2ccnc(N3CCNCC3)c2)cc1Cl
F: 19%
